Values quoted from earlier work as cited in US20150246056A1, “METHODS FOR TREATING OR PREVENTING SYMPTOMS OF HORMONAL VARIATIONS” (priority 2006, published 2015).

Tested on: muscarinic cholinergic receptors
Settings: tested at concentrations >10^−5 M; cited from earlier work

SMILES: Cc1nc2n(c(=O)c1CCN1CCC(c3noc4cc(F)ccc34)CC1)CCCC2 [risperidone]
- affinity for muscarinic cholinergic receptors: no affinity
